## CycPeptMPDB entries from one study

PAMPA is the parallel artificial membrane permeability assay, which has no cells and reads passive diffusion. P is given in units of 10^-6 cm/s (from log10 values with two decimals); larger means faster passage.

{"smiles": "CC(C)C[C@@H]1NC(=O)[C@H](C)NC(=O)[C@H](Cc2ccccc2)NC(=O)CN(Cc2ccccc2)C(=O)[C@@H]2CCCN2C(=O)[C@@H](CC(C)C)NC1=O", "PAMPA (10^-6 cm/s)": "2.1"}
{"smiles": "CC(C)C[C@@H]1NC(=O)[C@@H](CC(C)C)NC(=O)[C@@H](C)N(C)C(=O)[C@H]2CCCN2C(=O)[C@H](Cc2ccccc2)NC(=O)[C@H](CC(C)C)N(C)C(=O)[C@H]2CCCN2C1=O", "PAMPA (10^-6 cm/s)": "5.9"}
{"smiles": "CC(C)C[C@@H]1NC(=O)[C@H](C)N(C)C(=O)[C@@H]2CCCN2C(=O)[C@H](Cc2ccccc2)NC(=O)[C@@H](CC(C)C)NC(=O)[C@@H]2CCCN2C(=O)[C@@H](CC(C)C)N(C)C1=O", "PAMPA (10^-6 cm/s)": "1.1"}
{"smiles": "CC(C)C[C@@H]1C(=O)N2CCC[C@H]2C(=O)N[C@H](CC(C)C)C(=O)N[C@@H](Cc2ccccc2)C(=O)N2CCC[C@H]2C(=O)N[C@@H](Cc2ccccc2)CC(=O)N[C@H](CC(C)C)C(=O)N1C", "PAMPA (10^-6 cm/s)": "2.9"}
{"smiles": "CC(C)C[C@@H]1C(=O)N[C@@H](Cc2ccccc2)C(=O)N2CCC[C@@H]2C(=O)N[C@@H](C)C(=O)N[C@H](CC(C)C)C(=O)N(C)[C@@H](CC(C)C)C(=O)N2CCC[C@@H]2C(=O)N1C", "PAMPA (10^-6 cm/s)": "1.9"}
{"smiles": "CCCN1CC(=O)N[C@H](CC(C)C)C(=O)N(C)[C@@H](CC(C)C)C(=O)N2CCC[C@@H]2C(=O)N(C)[C@H](CC(C)C)C(=O)N[C@@H](Cc2ccccc2)C(=O)N2CCC[C@H]2C1=O", "PAMPA (10^-6 cm/s)": "4.4"}
{"smiles": "CCCN1CC(=O)N(C)[C@H](CC(C)C)C(=O)N(C)[C@@H](CC(C)C)C(=O)N2CCC[C@@H]2C(=O)N(C)[C@@H](CC(C)C)C(=O)N[C@@H](Cc2ccccc2)C1=O", "PAMPA (10^-6 cm/s)": "8.3"}
{"smiles": "CCCN1CC(=O)N[C@@H](CC(C)C)C(=O)N(C)[C@@H](CC(C)C)C(=O)N2CCC[C@@H]2C(=O)N[C@@H](CC(C)C)C(=O)N[C@@H](Cc2ccccc2)C(=O)N2CCC[C@H]2C1=O", "PAMPA (10^-6 cm/s)": "1.5"}
{"smiles": "CC(C)C[C@H]1NC(=O)[C@H](CC(C)C)N(C)C(=O)[C@@H](C)N(C)C(=O)[C@@H]2CCCN2C(=O)[C@H](Cc2ccccc2)NC(=O)[C@H](CC(C)C)N(C)C(=O)[C@H]2CCCN2C1=O", "PAMPA (10^-6 cm/s)": "8.9"}
{"smiles": "CCCN1CC(=O)N(C)[C@@H](CC(C)C)C(=O)N(C)[C@H](CC(C)C)C(=O)N2CCC[C@H]2C(=O)N[C@H](CC(C)C)C(=O)N[C@@H](Cc2ccccc2)C(=O)N2CCC[C@H]2C1=O", "PAMPA (10^-6 cm/s)": "10"}
{"smiles": "CC(C)C[C@@H]1NC(=O)[C@H](C)N(C)C(=O)[C@H]2CCCN2C(=O)[C@H](Cc2ccccc2)NC(=O)CN(Cc2ccccc2)C(=O)[C@H]2CCCN2C(=O)C[C@H](Cc2ccccc2)NC1=O", "PAMPA (10^-6 cm/s)": "1.1"}
{"smiles": "CC(C)C[C@@H]1NC(=O)[C@@H]2CCCN2C(=O)CN(Cc2ccccc2)C(=O)[C@@H](CC(C)C)N(C)C(=O)[C@@H](C)N(C)C(=O)[C@@H]2CCCN2C(=O)[C@H](Cc2ccccc2)NC1=O", "PAMPA (10^-6 cm/s)": "0.19"}
{"smiles": "CCCN1CC(=O)N(C)[C@H](CC(C)C)C(=O)N[C@@H](Cc2ccccc2)CC(=O)N2CCC[C@H]2C(=O)N(C)[C@H](CC(C)C)C(=O)N[C@@H](Cc2ccccc2)C(=O)N2CCC[C@H]2C1=O", "PAMPA (10^-6 cm/s)": "2.5"}
{"smiles": "CC(C)C[C@@H]1NC(=O)[C@@H](CC(C)C)NC(=O)[C@H](C)N(C)C(=O)[C@H](Cc2ccccc2)NC(=O)CN(Cc2ccccc2)C(=O)[C@H]2CCCN2C1=O", "PAMPA (10^-6 cm/s)": "1.6"}
{"smiles": "CC(C)C[C@@H]1C(=O)N[C@@H](Cc2ccccc2)C(=O)N2CCC[C@@H]2C(=O)N(C)[C@H](C)C(=O)N[C@H](CC(C)C)C(=O)N[C@H](CC(C)C)C(=O)N2CCC[C@H]2C(=O)N1C", "PAMPA (10^-6 cm/s)": "1.7"}
{"smiles": "CC(C)C[C@@H]1NC(=O)[C@@H](C)N(C)C(=O)[C@H](Cc2ccccc2)NC(=O)[C@@H](CC(C)C)N(C)C(=O)[C@@H]2CCCN2C(=O)CN(Cc2ccccc2)C1=O", "PAMPA (10^-6 cm/s)": "8.1"}
{"smiles": "CCCN1CC(=O)N(C)[C@@H](CC(C)C)C(=O)N[C@@H](CC(C)C)C(=O)N2CCC[C@H]2C(=O)N(C)[C@@H](CC(C)C)C(=O)N[C@@H](Cc2ccccc2)C(=O)N2CCC[C@H]2C1=O", "PAMPA (10^-6 cm/s)": "7.9"}
{"smiles": "CC(C)C[C@H]1NC(=O)C[C@H](Cc2ccccc2)NC(=O)[C@H]2CCCN2C(=O)[C@H](Cc2ccccc2)NC(=O)[C@@H](CC(C)C)NC(=O)[C@@H]2CCCN2C(=O)[C@@H](CC(C)C)NC1=O", "PAMPA (10^-6 cm/s)": "1.4"}

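Conditions beyond the assay type are not listed; see the original paper. Other peptides of the study may be missing here. Peptides that the database sets to -10, its floor, are left out.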

Collected by the curators of CycPeptMPDB (Li et al. 2023) from Townsend et al. 2020, doi:10.26434/chemrxiv.13335941.v1.